# System: U87-MG glioblastoma cells
# Test: MVM infection markers (NS1, Pp53-S15, vDNA) by IF-confocal, Southern and western blot in U87-MG
# Format: cell-based, human
# Details: uninfected U87-MG cells
# Method: Immunofluorescence analyses were performed on neurospheres of hGSCs (human glioblastoma stem cells) and established adherent cell lines as follows: • Neurosphere staining. The cell spheres were fixed for 30 minutes with paraformaldehyde (PFA) 4%, then permeabilized for 10 minutes at room temperature with 0.1% Triton X-100 (Merck) in PBS, and blocked by incubating 20 minutes with 0.1% Triton X-100 and 10% fetal bovine serum (Sigma) in PBS. Neurospheres were incubated in the same buffer with the primary antibodies indicated in the figures for 1 h at 37° C., and finished by four five-minute PBS washes. Then neurospheres were incubated with the secondary antibodies at appropriate concentrations in the same buffer and conditions, and finally stained with DAPI for half an hour and mounted embedding at 37° C. in 0.8% agarose-LGT prepared in PBS. Embedded neurospheres were applied as 200 microliters drops on pre-cooled large (2×3 cm) coverslips and stored at 4° C. in the dark until confocal analysis. • Adherent cells. […] The images were processed with Adobe Photoshop CS5 programs (Adobe Systems Incorporated) and ImageJ/FIJI (http://rsb.info.nih.gov/ij/) taking the same samples as a zero-signal reference without antibodies (auto-fluorescence control), or only with secondary antibodies. […]
smiles,measurement,value
"NC(=O)NO [HU, Hydroxyurea]",p53 phosphorylation at the Ser15 residue,substantially increased
